In patent US20030201224A1, “Microbial consortium for the biodegradation of dithiocarbamates” (priority 2002, published 2003):

Legend:
consortium = assay: Degradation of other N-alkyl dithiocarbamates by the consortium (1000 ml bioreactor); details: time 0 h; pH 7.2, 20-27° C.
microbial consortium = details: soil
Description: One soil environment was inoculated with approximately 1.2×10^7 consortium members/g soil while the other remained uninoculated. Nitrogen and phosphorus was added to both systems. The initial soil pH was 6.8 and the temperature varied from 18° C. to 27° C. Water was added to maintain the dry weight at about 30%. Each soil system was mixed weekly to provide aeration.

## CN(C)C(=S)[S-].[Na+] [SDM, Sodium dimethyl dithiocarbamate]
consortium
  % degradation (percent loss over the abiotic Control): 3.02%
Microbial consortium; 100 mg SDM per kg soil, 10 d
  PERCENT degradation of SDM: 81%
Microbial consortium; 100 mg SDM per kg soil, 14 d
  PERCENT degradation of SDM: 87.3%
Microbial consortium; 100 mg SDM per kg soil, 20 d
  PERCENT degradation of SDM: 91%
Microbial consortium; 100 mg SDM per kg soil, 28 d
  PERCENT degradation of SDM: 92.4%
Microbial consortium; 500 mg SDM per kg soil, 10 d
  PERCENT degradation of SDM: 88%
Microbial consortium; 500 mg SDM per kg soil, 14 d
  PERCENT degradation of SDM: 92%
Microbial consortium; 500 mg SDM per kg soil, 20 d
  PERCENT degradation of SDM: 91%
Microbial consortium; 500 mg SDM per kg soil, 28 d
  PERCENT degradation of SDM: 89%
Microbial consortium; 1000 mg SDM per kg soil, 28 d
  PERCENT degradation of SDM: 81%

Where two headings read alike, the source gives them in different places.
